Data: article PMC3889641 (Inflammatory bowel diseases, 2013)
Read-outs that look alike come from different tables or passages of the source.

Assays:
TGF-β1 = format: in vivo, rat (Sprague-Dawley); conditions: 18 mg/kg/d i.p., 42 d
Collagen IαI = Collagen IαI expression; format: in vivo, rat (Sprague-Dawley); conditions: EtOH/Cilengitide rats, 18 mg/kg/d i.p., 42 d; mean ± SE, 12 animals per group

Substance: cilengitide
- ratio of active to total TGF-β1 (TGF-β1; EtOH/Cilengitide rats, EtOH/PBS control 0.15 ± 0.02): 0.10 ± 0.02
- ratio of active to total TGF-β1 (TGF-β1; TNBS/cilengitide rats, TNBS/PBS control 0.32 ± 0.05): 0.09 ± 0.03
- collagen IαI expression, fold decrease compared to EtOH/PBS (Collagen IαI): 0.65 ± 0.02 fold
